{"source": "paper PMC11502128", "about": "(Journal of Lipids, 2024)", "key": {"HepG2 cells": {"test_system": "HepG2 cells", "test": "Cell viability assessment (crystal violet), HepG2", "format": "cell-based, human", "conditions": "triterpenoids at 25 and 100 μM; lovastatin 50 μM"}, "[1]": {"test_system": "lipolysis-stimulated differentiated 3T3-L1 adipocytes", "conditions": "50 μM, 3 days"}}, "data": [{"molecule": "CC[C@H](C)C(=O)O[C@H]1C[C@@H](C)C=C2C=C[C@H](C)[C@H](CC[C@@H]3C[C@@H](O)CC(=O)O3)[C@H]21", "note": "[lovastatin, reference compound]", "values": [{"measurement": "cytotoxicity in the HepG2 model (abstract)", "setting": "HepG2 cells", "value": "cytotoxic"}, {"measurement": "cytotoxic effects on lipolysis-stimulated differentiated adipocytes", "setting": "[1]", "value": "had cytotoxic effects"}]}]}
